Measurements taken from US7635685B2 (priority 2003, dated 2009).

What was measured:
[1] = test system: 27-mer 16S A site RNA construct (AS-wt); test: surface plasmon resonance (SPR) binding to immobilized 16S A site RNA; details: immobilized 27-mer 16S A site RNA construct (AS-wt), tested form: sulfate
Bacillus subtilis = test: MIC microdilution assay against Bacillus subtilis; format: cell-based; details: tested form: sulfate; for MIC: Bacillus subtilis (ATCC 6633)

| SMILES | Kd [1] [µM] | MIC (Bacillus subtilis) [mg/L] | antibacterial activity against Bacillus subtilis (Bacillus subtilis) |
| --- | --- | --- | --- |
| NC[C@@H]1O[C@H](O[C@H]2[C@@H](O)[C@H](O[C@@H]3[C@@H](O)[C@H](N)C[C@H](N)[C@H]3O[C@H]3O[C@H](CN)[C@@H](O)[C@H](O)[C@H]3N)O[C@@H]2CO[C@@H]2O[C@H](CO)[C@@H](O)[C@H](O)[C@H]2N)[C@H](N)[C@@H](O)[C@@H]1O | 0.9 | – | – |
| NC[C@@H]1O[C@H](O[C@H]2[C@@H](O)[C@H](O[C@@H]3[C@@H](O)[C@H](N)C[C@H](N)[C@H]3O[C@H]3O[C@H](CN)[C@@H](O)[C@H](O)[C@H]3N)O[C@@H]2CO[C@@H]2O[C@H](CO)[C@@H](N)[C@@H](N)[C@H]2O)[C@H](N)[C@@H](O)[C@@H]1O | 2 | 8.5 to 10 | – |
| NC[C@@H]1O[C@H](O[C@H]2[C@@H](O)[C@H](O[C@@H]3[C@@H](O)[C@H](N)C[C@H](N)[C@H]3O[C@H]3O[C@H](CN)[C@@H](O)[C@H](O)[C@H]3N)O[C@@H]2CO[C@@H]2O[C@H](CO)[C@@H](N)[C@H](O)[C@H]2O)[C@H](N)[C@@H](O)[C@@H]1O | 0.7 | 6 to 7 | – |
| NC[C@@H]1O[C@H](O[C@H]2[C@@H](O)[C@H](O[C@@H]3[C@@H](O)[C@H](N)C[C@H](N)[C@H]3O[C@H]3O[C@H](CN)[C@@H](O)[C@H](O)[C@H]3N)O[C@@H]2CO[C@@H]2O[C@H](CN)[C@@H](N)[C@H](O)[C@H]2O)[C@H](N)[C@@H](O)[C@@H]1O | 1.3 | 3.5 to 4 | – |
| NC[C@@H]1O[C@H](O[C@H]2[C@@H](O)[C@H](O[C@@H]3[C@@H](O)[C@H](N)C[C@H](N)[C@H]3O[C@H]3O[C@H](CN)[C@@H](O)[C@H](O)[C@H]3N)O[C@@H]2CO[C@@H]2O[C@H](CN)[C@@H](O)[C@H]2O)[C@H](N)[C@@H](O)[C@@H]1O | 0.7 | 5 to 7 | – |
| NC[C@@H]1O[C@H](O[C@H]2[C@@H](O)[C@H](O[C@@H]3[C@@H](O)[C@H](N)C[C@H](N)[C@H]3O[C@H]3O[C@H](CN)[C@@H](O)[C@H](O)[C@H]3N)O[C@@H]2CO[C@@H]2O[C@H](CO)[C@@H](O)[C@H]2O)[C@H](N)[C@@H](O)[C@@H]1O | 0.7 | – | effective |
| NC[C@@H]1O[C@H](O[C@H]2[C@@H](O)[C@H](OC[C@H]3O[C@@H](O[C@@H]4[C@@H](O)[C@H](N)C[C@H](N)[C@H]4O[C@H]4O[C@H](CN)[C@@H](O)[C@H](O)[C@H]4N)[C@H](O)[C@@H]3O[C@H]3O[C@@H](CN)[C@@H](O)[C@H](O)[C@H]3N)O[C@@H]2CO)[C@H](N)[C@@H](O)[C@@H]1O | 1.9 | 5 to 10 | – |
| NC[C@@H]1O[C@H](O[C@H]2[C@@H](O)[C@H](O[C@@H]3[C@@H](O)[C@H](N)C[C@H](N)[C@H]3O[C@H]3O[C@H](CN)[C@@H](O)[C@H](O)[C@H]3N)O[C@@H]2CO[C@@H]2O[C@H](CN)[C@@H](O)[C@H](O)[C@H]2N)[C@H](N)[C@@H](O)[C@@H]1O | 0.6 | 5 to 7 | – |
| NC[C@@H]1O[C@H](O[C@H]2[C@@H](O)[C@H](O[C@@H]3[C@@H](O)[C@H](N)C[C@H](N)[C@H]3O[C@H]3O[C@H](CN)[C@@H](O)[C@H](O)[C@H]3N)O[C@@H]2CS)[C@H](N)[C@@H](O)[C@@H]1O | 2.9 | 10 to 11 | – |
